This is an account of results in article PMC6613885.

Chains of the proteins cited; added tags and fusions are not shown.
UniProt Q9H0R8, whole entry: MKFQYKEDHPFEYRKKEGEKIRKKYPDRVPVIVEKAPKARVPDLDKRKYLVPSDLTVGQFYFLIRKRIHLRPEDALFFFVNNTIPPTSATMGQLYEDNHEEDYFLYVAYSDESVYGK

The target of assay [1] is biotin-labeled 16-mer PIK3C3 S2E LIR peptide (human). Description: BLI; biotin-LIR peptides (50 µg/ml) on streptavidin biosensors, Atg8-family protein in solution at different concentrations; Octet Red 96; 25°C; global fit, 1:1 model. Background: Biolayer interferometry detects binding as a change in optical thickness at a sensor tip.
In assay [2] the target is biotin-labeled 16-mer BECN1 S2E LIR peptide (human). Described as above.

The substance “recombinant GABARAPL1 (biolayer interferometry) (from UniProt Q9H0R8 1-117) (natural protein)” displayed a fold increase in binding over the wild-type LIR peptide in assay [1] of 19 fold. In assay [2], this substance gave a fold increase in binding affinity over the wild-type LIR peptide of 3 fold.
